# Test results taken from patent US20190209472A1, “FORMULATIONS FOR DERMAL DELIVERY OF POLYMER CONJUGATES OF INDOLOCARBAZOLE COMPOUNDS WITH REDUCED EXPOSURE” (Sienna Biopharmaceuticals, Inc., priority 2017, published 2019).
# Where two headings read alike, the source gives them in different places.
# Assays:
# [1] = Validation of HPLC methods (SNA-120 assay and related substances, benzyl alcohol); conditions: SNA-120 standard solutions, protected from light at ambient conditions
# From the text: An HPLC method was developed for the detection of assay and related substances of SNA-120 drug product and placebo. The following method validation parameters were challenged: specificity; linearity; accuracy; precision (system and repeatability); range; stability of test solutions; limit of detection and quantitation; system suitability.
# An HPLC method was developed for the detection of Benzyl Alcohol in SNA-120 drug product and placebo. The following method validation parameters were challenged: specificity; linearity; accuracy; precision (system and repeatability); range; stability of test solutions; system suitability.
# [2] = Phase I study: CT327 and CT327 amide in human plasma by HPLC-FLD; format: in vivo; conditions: 1 g of 0.5% w/w CT327 ointment bid, individual subjects
# Protocol: (§1) Sixteen patients were enrolled in 2 treatment groups.
# The analytical procedure involved extraction of CT327 and CT327 amide from human plasma by a liquid-liquid extraction. The human plasma samples were analyzed using a validated HPLC method with fluorescence detection (FLD). […] Concentrations of the calibration curve standards, quality control samples and study samples were determined by the method of (1/x^2) weighted least squares linear regression.
# A total of 240 human plasma samples were analyzed. […] A further 80 samples were received from subjects who had been dosed with placebo; these were not analyzed. All samples were stored at −80° C. (±10° C.).
# (§2) The extraction procedure involved a liquid-liquid extraction. A portion of the extract was injected onto the HPLC-FLD system.
# For calibration curve generation, duplicate calibrators at seven different concentrations, a human plasma blank and a human plasma blank plus internal standard were prepared for each batch. The calibration curves were produced by plotting the analyte to internal standard peak area ratios (y-axis) versus the concentration. The gradient and the intercept were determined by (1/x^2) weighted least squares linear regression.
# (§3) Calculated concentration of analyte=((PAR-C)/M), where: PAR=analyte to internal standard peak area ratio; C=intercept; and M=gradient.
# [3] = Phase I study: CT327 and CT327 amide in human urine by HPLC-FLD; format: in vivo; conditions: per subject, 1 g dose of 0.5% w/w CT327
# Protocol: as §1
# The analytical procedure involved extraction of CT327 and CT327 amide from human urine by a liquid-liquid extraction. The human urine samples were analyzed using a validated HPLC method with fluorescence detection (FLD). […] Concentrations of the calibration curve standards, quality control samples and study samples were determined by the method of (1/x^2) weighted least squares linear regression.
# A total of 84 human urine samples were analyzed. […] A further 28 samples were received from subjects who had been dosed with placebo; these were not analyzed. All samples were stored at −80° C. (±10° C.).
# as §2
# For calibration curve generation, duplicate calibrators at seven different concentrations, a human urine blank and a human urine blank plus internal standard were prepared for each batch. The calibration curves were produced by plotting the analyte to internal standard peak area ratios (y-axis) versus the concentration. The gradient and the intercept were determined by (1/x^2) weighted least squares linear regression.
# as §3
# [4] = tested on: subjects with pruritus associated with psoriasis vulgaris; assay: Phase 2b study: safety and tolerability; parameters: species or system human; conditions: in vivo
# From the text: The study subjects (mild-to-moderate psoriasis patients with at least moderate pruritus (itch)) consisted of 208 adult subjects that were ≥18 years of age, randomized 1:1:1 to SNA-120 0.05%, SNA-120 0.5% and vehicle (see Table 1). Subjects self-administered the assigned study drug (SNA-120 ointment or vehicle; the vehicle formulation was the same as the SNA-120 formulation without the active) to the indicated areas twice-daily over 12 weeks. The ointment contains SNA-120 (pegcantratinib [active ingredient]), butylated hydroxytoluene, benzyl alcohol, propylene glycol, white soft paraffin (white petrolatum), white wax, stearyl alcohol, and cholesterol (see Table 1). Assessments were performed to determine the treatment effect on pruritus, as well as the underlying visible plaque psoriasis, and safety and local tolerability of SNA-120. Pruritus was assessed by the subject-administered I-NRS and recorded on their daily diaries. Plaque psoriasis was assessed by the investigator by Investigator Global Assessment (IGA) and Psoriasis Area Severity Index (PAST). At baseline, subjects were required to have a weekly mean I-NRS score of at least 5 on the 11 point I-NRS scale, and mild to moderate plaque psoriasis (IGA 2 or 3).
# [5] = not given; remark: listed apart in the source
# [6] = tested on: patients with stable psoriasis vulgaris; assay: Phase I study: safety and tolerability (TEAEs, laboratory, vital signs, ECG); conditions: in vivo
substance,measurement,setting,value
"(9S, 10R, 12R)-10-(3′-mPEG2000-1′,3′-oxazolidine-2′,4′-dione)-2,3,9,10,11,12-hexahydro-9-methyl-1-oxo-9,12-epoxy-1H-diindolo[1,2,3-fg:3′,2′,1′-k,l]pyrrolo[3,4-i][1,6] benzodiazocine] [CT327]",Stability of test solutions: standards stable for up to,[1],Standards are stable for up to 3 days when protected from light at
same,CT327 Concentration (ngml^−1),[2]; Day 1 0.5 h,"NQ (concentrations below the LLOQ, and thus were reported as non-quantifiable (NQ))"
same,CT327 Concentration (ngml^−1),[2]; Day 1 1 h,"NQ (concentrations below the LLOQ, and thus were reported as non-quantifiable (NQ))"
same,CT327 Concentration (ngml^−1),[2]; Day 1 2 h,"NQ (concentrations below the LLOQ, and thus were reported as non-quantifiable (NQ))"
same,CT327 Concentration (ngml^−1),[2]; Day 1 4 h,"NQ (concentrations below the LLOQ, and thus were reported as non-quantifiable (NQ))"
same,CT327 Concentration (ngml^−1),[2]; Day 1 12 h,"NQ (concentrations below the LLOQ, and thus were reported as non-quantifiable (NQ))"
same,CT327 Concentration (ngml^−1),[2]; Day 1 predose,"NQ (concentrations below the LLOQ, and thus were reported as non-quantifiable (NQ))"
same,CT327 Concentration (ngml^−1),[2]; Day 3 0.5 h,"NQ (concentrations below the LLOQ, and thus were reported as non-quantifiable (NQ))"
same,CT327 Concentration (ngml^−1),[2]; Day 3 1 h,"NQ (concentrations below the LLOQ, and thus were reported as non-quantifiable (NQ))"
same,CT327 Concentration (ngml^−1),[2]; Day 3 2 h,"NQ (concentrations below the LLOQ, and thus were reported as non-quantifiable (NQ))"
same,CT327 Concentration (ngml^−1),[2]; Day 3 4 h,"NQ (concentrations below the LLOQ, and thus were reported as non-quantifiable (NQ))"
same,CT327 Concentration (ngml^−1),[2]; Day 3 12 h,"NQ (concentrations below the LLOQ, and thus were reported as non-quantifiable (NQ))"
same,CT327 Concentration (ngml^−1),[2]; Day 3 predose,"NQ (concentrations below the LLOQ, and thus were reported as non-quantifiable (NQ))"
same,CT327 Concentration (ngml^−1),[2]; Day 7 0.5 h,"NQ (concentrations below the LLOQ, and thus were reported as non-quantifiable (NQ))"
same,CT327 Concentration (ngml^−1),[2]; Day 7 1 h,"NQ (concentrations below the LLOQ, and thus were reported as non-quantifiable (NQ))"
same,CT327 Concentration (ngml^−1),[2]; Day 7 2 h,"NQ (concentrations below the LLOQ, and thus were reported as non-quantifiable (NQ))"
same,CT327 Concentration (ngml^−1),[2]; Day 7 4 h,"NQ (concentrations below the LLOQ, and thus were reported as non-quantifiable (NQ))"
same,CT327 Concentration (ngml^−1),[2]; Day 7 8 h,"NQ (concentrations below the LLOQ, and thus were reported as non-quantifiable (NQ))"
same,CT327 Concentration (ngml^−1),[2]; Day 7 12 h,"NQ (concentrations below the LLOQ, and thus were reported as non-quantifiable (NQ))"
same,CT327 Concentration (ngml^−1),[2]; Day 7 24 h,"NQ (concentrations below the LLOQ, and thus were reported as non-quantifiable (NQ))"
same,CT327 Concentration (ngml^−1),[2]; Day 7 predose,"NQ (concentrations below the LLOQ, and thus were reported as non-quantifiable (NQ))"
same,CT327 Concentration,[3]; Day 1 0-12 h,"NQ (concentrations below the LLOQ, and thus were reported as non-quantifiable (NQ))"
same,CT327 Concentration,[3]; Day 1 predose,"NQ (concentrations below the LLOQ, and thus were reported as non-quantifiable (NQ))"
same,CT327 Concentration,[3]; Day 3 0-12 h,"NQ (concentrations below the LLOQ, and thus were reported as non-quantifiable (NQ))"
same,CT327 Concentration,[3]; Day 3 predose,"NQ (concentrations below the LLOQ, and thus were reported as non-quantifiable (NQ))"
same,CT327 Concentration,[3]; Day 7 0-12 h,"NQ (concentrations below the LLOQ, and thus were reported as non-quantifiable (NQ))"
same,CT327 Concentration,[3]; Day 7 12-24 h,"NQ (concentrations below the LLOQ, and thus were reported as non-quantifiable (NQ))"
same,CT327 Concentration,[3]; Day 7 predose,"NQ (concentrations below the LLOQ, and thus were reported as non-quantifiable (NQ))"
same,Serious treatment-related adverse events,[4],no serious treatment-related adverse events
same,Tolerability,[4],well-tolerated
same,"Solubility of CT327 in single solvents, Comments",Benzyl alcohol,Excellent solubility
same,"Solubility of CT327 in single solvents, Comments",Benzyl benzoate,Excellent solubility
same,"Solubility of CT327 in single solvents, Results % w/w",Caprylic/capric triglycerides,<0.5% w/w
same,"Solubility of CT327 in single solvents, Results % w/w",Cyclomethicone,<0.5% w/w
same,"Solubility of CT327 in single solvents, Results % w/w",Diethyl sebacate,<0.5% w/w
same,"Solubility of CT327 in single solvents, Results % w/w",Diisopropyl adipate,<0.5% w/w
same,"Solubility of CT327 in single solvents, Results % w/w",Dimethyl isosorbide,≥5% w/w
same,"Solubility of CT327 in single solvents, Comments",Ethanol (190 proof),Excellent solubility
same,"Solubility of CT327 in single solvents, Results % w/w",Hexylene glycol,<0.5% w/w
same,"Solubility of CT327 in single solvents, Results % w/w",Isopropyl myristate,<0.5% w/w
same,"Solubility of CT327 in single solvents, Results % w/w",Isostearic acid,<0.5% w/w
same,"Solubility of CT327 in single solvents, Results % w/w",Isostearyl alcohol,<0.5% w/w
same,"Solubility of CT327 in single solvents, Comments",Lactic acid,Excellent solubility
same,"Solubility of CT327 in single solvents, Results % w/w",Lactic acid,≥10% w/w
same,"Solubility of CT327 in single solvents, Results % w/w",Myristyl lactate,<0.5% w/w
same,"Solubility of CT327 in single solvents, Results % w/w",N-Methyl pyrrolidone,≥10% w/w
same,"Solubility of CT327 in single solvents, Results % w/w",Octyldodecanol,<0.5% w/w
same,"Solubility of CT327 in single solvents, Results % w/w",Oleyl alcohol,<0.5% w/w
same,"Solubility of CT327 in single solvents, Results % w/w",PEG 400,~0.5% w/w
same,"Solubility of CT327 in single solvents, Results % w/w",Propylene glycol,~1% w/w
same,"Solubility of CT327 in single solvents, Results % w/w",Transcutol,≥2% w/w
same,Solubility,"in ethanol, benzyl alcohol and water",Extremely soluble
same,Stability to light,[5]; exposure to artificial daylight fluorescent lamp,causes degradation
same,Stability to pH,[5]; neutral and alkaline pH,causes degradation
same,Aqueous stability,[5]; previously acquired stability data,poor aqueous stability
same,Stability to temperature,[5]; room temperature to 40° C. to 60° C.,progressive increase in degradation rate
same,AEs at the treatment application sites,[6],No AEs
same,"Clinical laboratory test results, vital signs, ECGs or physical examinations",[6],no clinically significant findings
same,"Deaths, SAEs or withdrawals due to TEAEs",[6],"No deaths, SAEs or withdrawals due to TEAEs"
same,Severe TEAEs,[6],No severe TEAEs
same,Tolerability of study treatment,[6],well tolerated
